Reference: ChEMBL document CHEMBL2440048, “Novel carvedilol analogues that suppress store-overload-induced Ca2+ release” (J Med Chem, 2013)

Assay: Inhibition of RyR2 R4496C mutant (unknown origin)-mediated store-overload induced calcium release expressed in HEK293 cells after 8 to 10 mins by fura-2/AM dye-based fluorescence assay
Type: cell-based
Settings: Homo sapiens
In the case of `COc1ccccc1OCCNCC(O)COc1ccc2c(c1)[nH]c1ccccc12` (centres undefined), the IC50 is reported as 17.8 µM. In the case of `COc1ccccc1Oc1ccccc1NCC(O)COc1cccc2[nH]c3ccccc3c12` (centres undefined), the IC50 is reported as 94.5 µM. For `COc1cc(Cl)c(Cl)cc1OCCN1CCOC(COc2cccc3[nH]c4ccccc4c23)C1` (centres undefined), the IC50 was 86.7 µM. `COc1ccccc1OCCNCC(O)COc1cccc2ccccc12` (centres undefined) gave an IC50 of 15.1 µM. Work on `O=C1OC(COc2cccc3[nH]c4ccccc4c23)CN1CCOC1CCCCC1` (centres undefined) yielded an IC50 of 113 µM. `COc1ccccc1OCCNCC(O)COc1cccc2[nH]c3ccccc3c12` (centres undefined) [CARVEDILOL] showed an IC50 of 15.9 µM. For `COc1ccccc1SCCNCC(O)COc1cccc2[nH]c3ccccc3c12` (centres undefined), the IC50 was 11.6 µM. In the case of `OC(COc1ccc2[nH]c3ccccc3c2c1)CN1CCOc2ccccc21` (centres undefined), the IC50 is reported as 8.61 µM. `COc1ccccc1OCCN(C)CC(O)COc1cccc2[nH]c3ccccc3c12` (centres undefined) showed an IC50 of 18.3 µM. `COc1ccccc1OCCNCC(O)COc1ccc2oc3ccccc3c2c1` (centres undefined) showed an IC50 of 11 µM. In the case of `COc1ccccc1OCCNCC(O)COc1cccc2c1-c1ccccc1C2=O` (centres undefined), the IC50 is reported as 30.1 µM. `COc1ccccc1OCCNCC(O)COc1ccc2[nH]c3ccccc3c2c1` (centres undefined) gave an IC50 of 7.74 µM. For `COc1ccccc1OCCNCC(O)COc1cccc2c1c1ccccc1n2C` (centres undefined), the IC50 was 35.2 µM. With `COc1ccccc1OCCN1CCOC(COc2cccc3[nH]c4ccccc4c23)C1` (centres undefined) the IC50 was 22.9 µM. In the case of `COc1ccccc1OCCN1CC(COc2ccc3[nH]c4ccccc4c3c2)OCC1=O` (centres undefined), the IC50 is reported as 6.2 µM. With `OC(CNCCOC1CCCCC1)COc1cccc2[nH]c3ccccc3c12` (centres undefined) the IC50 was 35.2 µM. `COc1ccccc1OCCNCC(O)CCOc1ccc2[nH]c3ccccc3c2c1` (centres undefined) gave an IC50 of 9.72 µM. `OC(CNCCOc1ccccn1)COc1cccc2[nH]c3ccccc3c12` (centres undefined) showed an IC50 of 54.9 µM. Work on `COc1ccccc1OCCNCC(O)COc1ccc2c(c1)CCC(=O)N2` (centres undefined) yielded an IC50 of 463 µM. For `COc1ccccc1OCCNCC(O)COc1ccc2[nH]c3ccc(Br)cc3c2c1Br` (centres undefined), the IC50 was 69.8 µM. For `COc1ccccc1N1CCN(CC(O)COc2cccc3[nH]c4ccccc4c23)CC1` (centres undefined), the IC50 was 34.9 µM. Work on `COc1ccccc1OCCN1CC(COc2cccc3[nH]c4ccccc4c23)OCC1=O` (centres undefined) yielded an IC50 of 26.1 µM. Work on `COc1ccccc1OCCNCC(O)CCCCOc1ccc2[nH]c3ccccc3c2c1` (centres undefined) yielded an IC50 of 15.9 µM. Work on `COc1ccccc1COCCNCC(O)COc1cccc2[nH]c3ccccc3c12` (centres undefined) yielded an IC50 of 10.2 µM. In the case of `Oc1ccccc1OCCNCC(O)COc1cccc2[nH]c3ccccc3c12` (centres undefined), the IC50 is reported as 7.62 µM. With `COc1ccccc1OCCNCC(O)COCC12CC3CC(CC(C3)C1)C2` (centres undefined) the IC50 was 28 µM. Compound `COc1ccc2c(c1)CN(C(=O)CCN1CCC(Cc3ccccc3)CC1)CCS2` has an IC50 of 34.3 µM. `O=C1OC(COc2cccc3[nH]c4ccccc4c23)CN1CCOc1ccccc1O` (centres undefined) gave an IC50 of 16.1 µM. `COc1ccccc1CCCNCC(O)COc1cccc2[nH]c3ccccc3c12` (centres undefined) gave an IC50 of 7.43 µM. Work on `COc1ccccc1OCC1COC(COc2cccc3[nH]c4ccccc4c23)=N1` (centres undefined) yielded an IC50 of 19.8 µM. With `COc1ccccc1OCCNCC(O)COc1ccc2c(c1)[nH]c1ccc(F)cc12` (centres undefined) the IC50 was 5.5 µM. With `COc1ccccc1OCCNCC(O)COc1ccc2[nH]ccc2c1` (centres undefined) the IC50 was 101 µM. In the case of `Clc1cc(Cl)c(OCCN2CCOC(COc3cccc4[nH]c5ccccc5c34)C2)cc1Cl` (centres undefined), the IC50 is reported as 364 µM. Work on `COc1ccccc1OCCN1CC(CCOc2cccc3[nH]c4ccccc4c23)OCC1=O` (centres undefined) yielded an IC50 of 14.6 µM. `COc1ccccc1OCCNCC(O)COc1cccc2c1-c1ccccc1C2` (centres undefined) gave an IC50 of 17 µM. Work on `COc1ccccc1OCCN1CCC(COc2cccc3[nH]c4ccccc4c23)OCC1=O` (centres undefined) yielded an IC50 of 86.7 µM. Compound `COc1cc(Cl)c(Cl)cc1OCCN1CC(COc2cccc3[nH]c4ccccc4c23)OC1=O` (centres undefined) has an IC50 of 97.2 µM. Compound `COc1ccccc1OCCNCC(O)COc1ccc2cn[nH]c2c1` (centres undefined) has an IC50 of 545 µM. Compound `COc1ccccc1OCCNCC(O)COc1cccc(Nc2ccccc2)c1` (centres undefined) has an IC50 of 18.2 µM. In the case of `COc1ccccc1OCCNCC(O)CCOc1cccc2[nH]c3ccccc3c12` (centres undefined), the IC50 is reported as 16.8 µM. Compound `COc1ccccc1OCCNCC(O)CCCCOc1cccc2[nH]c3ccccc3c12` (centres undefined) has an IC50 of 11.4 µM. With `OC(CNCCOc1cc(Cl)c(Cl)cc1Cl)COc1cccc2[nH]c3ccccc3c12` (centres undefined) the IC50 was 28 µM. With `COc1ccccc1OCCNCC(O)COc1ccc2c(c1)[nH]c1c(F)cc(F)cc12` (centres undefined) the IC50 was 4.37 µM. `COc1ccccc1OCCNCC(O)COc1ccc2c(c1)Nc1ccccc1S2` (centres undefined) gave an IC50 of 5.7 µM. For `COc1ccccc1OCCNCC(O)CCOc1ccc2c(c1)[nH]c1ccccc12` (centres undefined), the IC50 was 14.6 µM. Compound `CSc1ccccc1OCCNCC(O)COc1cccc2[nH]c3ccccc3c12` (centres undefined) has an IC50 of 16.4 µM. For `O=C1COc2ccccc2N1CC(O)COc1cccc2[nH]c3ccccc3c12` (centres undefined), the IC50 was 15.8 µM. `Cc1ccccc1OCCNCC(O)COc1cccc2[nH]c3ccccc3c12` (centres undefined) gave an IC50 of 15.1 µM. For `OC(CNCCCc1ccccc1)COc1cccc2[nH]c3ccccc3c12` (centres undefined), the IC50 was 8.52 µM. For `COc1cc(F)ccc1OCCNCC(O)COc1ccc2c(c1)[nH]c1ccccc12` (centres undefined), the IC50 was 10.2 µM. For `COc1ccccc1OCCN1CC(COc2ccc3[nH]c4ccccc4c3c2)OCS1(=O)=O` (centres undefined), the IC50 was 436 µM. With `OC(CNCCOc1ccccc1C(F)(F)F)COc1ccc2c(c1)[nH]c1ccccc12` (centres undefined) the IC50 was 15.4 µM. With `COc1ccccc1OCCN1CC(COc2ccc3c(c2)[nH]c2ccccc23)OCC1=O` (centres undefined) the IC50 was 19.8 µM. In the case of `COc1ccccc1OCCNCC(O)COc1cccc2c1[nH]c1ccccc12` (centres undefined), the IC50 is reported as 12.4 µM. With `COc1ccccc1OCCNCCC(O)COc1cccc2[nH]c3ccccc3c12` (centres undefined) the IC50 was 13.5 µM. With `COc1ccccc1OCCN1CC(COc2cccc3[nH]c4ccccc4c23)OC1=O` (centres undefined) the IC50 was 86.3 µM. For `COc1ccccc1OCCNCC(O)COC12CC3CC(CC(C3)C1)C2` (centres undefined), the IC50 was 75.6 µM. In the case of `COc1ccccc1OCC(O)CNCCOc1cccc2[nH]c3ccccc3c12` (centres undefined), the IC50 is reported as 24.4 µM. For `COc1ccccc1OCCNCC(O)CCOc1cccc2ccccc12` (centres undefined), the IC50 was 9.77 µM. In the case of `COc1ccccc1OCC1CN(CCOc2cccc3[nH]c4ccccc4c23)C(=O)CO1` (centres undefined), the IC50 is reported as 26.7 µM. `OC(CNCCOCc1ccccc1)COc1cccc2[nH]c3ccccc3c12` (centres undefined) gave an IC50 of 9.51 µM. Compound `OC(CNCCOc1ccccc1F)COc1ccc2c(c1)[nH]c1ccccc12` (centres undefined) has an IC50 of 20.1 µM. In the case of `OC(COc1cccc2[nH]c3ccccc3c12)CN1CCN(c2ccccc2)CC1` (centres undefined), the IC50 is reported as 62.7 µM. `OC(CCOc1cccc2[nH]c3ccccc3c12)CN1CCOc2ccccc21` (centres undefined) gave an IC50 of 19.7 µM. `O=C1COC(COc2cccc3[nH]c4ccccc4c23)CN1CCOC1CCCCC1` (centres undefined) showed an IC50 of 52.9 µM. With `COc1ccccc1OCCN1CC(CCOc2ccc3c(c2)[nH]c2ccccc23)OC1=O` (centres undefined) the IC50 was 354 µM. In the case of `COc1ccccc1OCCNCC(O)COc1cccc2[nH]ccc12` (centres undefined), the IC50 is reported as 213 µM. In the case of `COc1ccccc1OCCNCC(O)COc1ccc2c(c1)Nc1ccccc1S2(=O)=O` (centres undefined), the IC50 is reported as 65.8 µM. Compound `COc1cc(Cl)c(Cl)cc1OCCNCC(O)COc1cccc2[nH]c3ccccc3c12` (centres undefined) has an IC50 of 11.2 µM. For `COc1ccccc1OCCNCC(O)COC1C2CC3CC(C2)CC1C3` (centres undefined), the IC50 was 29.7 µM. Work on `OC(COc1cccc2[nH]c3ccccc3c12)CN1CCOc2ccccc21` (centres undefined) yielded an IC50 of 5.76 µM. Compound `COc1ccccc1OCCNCC(O)COc1ccc2[nH]c3c(c2c1)CCCC3` (centres undefined) has an IC50 of 17.4 µM. In the case of `COc1ccccc1OCCNCC(O)COc1ccc2[nH]c3ccc(F)cc3c2c1` (centres undefined), the IC50 is reported as 6.26 µM. With `COc1ccccc1OCCNCCC(O)COc1ccc2[nH]c3ccccc3c2c1` (centres undefined) the IC50 was 9.74 µM.
